Values quoted from earlier work in patent US20250304560A1, “MODULATORS OF NLRP3 INFLAMMASOME AND RELATED PRODUCTS AND METHODS” (Neumora Therapeutics, Inc., priority 2022, published 2025).

Protein sequences, listed by entry. Tags and fused reporters are not part of them. Lines headed by an entry give the natural chain unless they say otherwise; changes in a name come on top.
UniProt Q12809: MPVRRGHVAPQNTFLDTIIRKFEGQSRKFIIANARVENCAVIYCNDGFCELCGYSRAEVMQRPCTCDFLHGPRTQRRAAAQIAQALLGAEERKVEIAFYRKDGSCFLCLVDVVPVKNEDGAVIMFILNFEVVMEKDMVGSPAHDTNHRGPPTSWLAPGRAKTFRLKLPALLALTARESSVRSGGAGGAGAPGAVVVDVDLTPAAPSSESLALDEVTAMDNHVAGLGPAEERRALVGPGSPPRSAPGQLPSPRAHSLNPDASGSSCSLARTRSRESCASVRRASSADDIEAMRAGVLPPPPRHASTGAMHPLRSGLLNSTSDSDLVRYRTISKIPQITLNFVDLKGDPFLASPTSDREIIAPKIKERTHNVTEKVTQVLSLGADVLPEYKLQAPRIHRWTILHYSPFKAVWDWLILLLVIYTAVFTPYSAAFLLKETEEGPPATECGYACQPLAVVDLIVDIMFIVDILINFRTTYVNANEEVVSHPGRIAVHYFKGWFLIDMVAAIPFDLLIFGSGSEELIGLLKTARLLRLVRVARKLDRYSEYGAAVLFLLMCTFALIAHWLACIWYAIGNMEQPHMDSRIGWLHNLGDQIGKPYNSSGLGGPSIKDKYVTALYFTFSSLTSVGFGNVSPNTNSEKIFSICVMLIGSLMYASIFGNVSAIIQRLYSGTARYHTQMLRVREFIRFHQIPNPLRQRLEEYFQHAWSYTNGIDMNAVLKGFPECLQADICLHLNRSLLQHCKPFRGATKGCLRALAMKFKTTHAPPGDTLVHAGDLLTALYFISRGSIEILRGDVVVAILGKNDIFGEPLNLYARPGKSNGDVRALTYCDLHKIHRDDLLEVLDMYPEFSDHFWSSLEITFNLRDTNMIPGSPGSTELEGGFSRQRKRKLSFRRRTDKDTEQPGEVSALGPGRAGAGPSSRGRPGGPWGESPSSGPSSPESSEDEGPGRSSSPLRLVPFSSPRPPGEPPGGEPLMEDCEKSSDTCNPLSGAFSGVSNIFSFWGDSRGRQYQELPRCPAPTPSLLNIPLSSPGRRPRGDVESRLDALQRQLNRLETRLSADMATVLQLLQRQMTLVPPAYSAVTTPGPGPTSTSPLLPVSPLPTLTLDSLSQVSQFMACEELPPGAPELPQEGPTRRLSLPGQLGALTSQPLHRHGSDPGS

Target: T1, hERG channels (Homo sapiens, UniProt Q12809)
T1 construct: host or cells: CHO-hERG cells
Settings: 100 nM, positive control, according to scientific literature (Milnes et al.); cited from earlier work

## COc1cc(N)c(Cl)cc1C(=O)NC1CCN(CCCOc2ccc(F)cc2)CC1OC (stereo not shown) [cisapride]
  inhibition of hERG current: more than 50%
